IC50 data for 1 molecule are collected here from patent publication US9365529B2, “Benzenesulfonamide compounds, method for synthesizing same, and use thereof in medicine as well as in cosmetics” (GALDERMA RESEARCH & DEVELOPMENT, priority 2009, dated 2016).

The chains behind the UniProt entries cited, without tags or fusion partners. Residues count along the entry.
UniProt P78536, 215-824 limits assumed: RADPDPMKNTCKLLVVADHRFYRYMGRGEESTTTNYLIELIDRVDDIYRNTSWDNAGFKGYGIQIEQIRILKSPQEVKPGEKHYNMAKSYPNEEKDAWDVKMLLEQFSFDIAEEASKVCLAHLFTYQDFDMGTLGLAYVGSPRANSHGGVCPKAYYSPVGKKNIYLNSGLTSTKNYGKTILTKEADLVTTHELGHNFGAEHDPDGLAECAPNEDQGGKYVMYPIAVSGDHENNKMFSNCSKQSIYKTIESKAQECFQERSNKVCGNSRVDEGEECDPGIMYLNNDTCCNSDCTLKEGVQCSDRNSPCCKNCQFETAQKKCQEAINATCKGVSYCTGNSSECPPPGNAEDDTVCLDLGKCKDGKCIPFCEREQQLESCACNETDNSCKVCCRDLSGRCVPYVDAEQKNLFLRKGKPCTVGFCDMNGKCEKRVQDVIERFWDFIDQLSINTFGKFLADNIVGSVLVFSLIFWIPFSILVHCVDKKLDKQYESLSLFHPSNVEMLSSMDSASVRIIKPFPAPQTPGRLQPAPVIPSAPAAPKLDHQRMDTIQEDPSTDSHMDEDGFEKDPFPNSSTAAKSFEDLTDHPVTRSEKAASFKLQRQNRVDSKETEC

This experiment concerns the target TACE enzyme (Homo sapiens, UniProt P78536). The experiment in a line: Enzymatic assay for TACE inhibition. The format is biochemical. To be noted: Example 28 table.

As a reminder, the IC50 is the point on the concentration scale where inhibition reaches its midpoint. The low end stands for greater potency, the high end for weaker potency. In turn, `CC#CCOc1ccc(S(=O)(=O)CNCC(C(=O)NO)N2CCN(S(C)(=O)=O)CC2)cc1` (stereo not shown) [Example 1, 3-[(4-but-2-ynyloxybenzenesulfonyl)methylamino]-N-hydroxy-2-(4-methanesulfonylpiperazin-1-yl)propionamide] returned a concentration for half-maximal inhibition (IC50) of 87 nM.
